For one molecule, Kd results are on record in patent US8987414 (AILERON THERAPEUTICS, dated 2015).

By UniProt entry, the sequences of proteins in these tests, tags left out. Residues count along the entry.
UniProt Q00987, 1-138 limits assumed: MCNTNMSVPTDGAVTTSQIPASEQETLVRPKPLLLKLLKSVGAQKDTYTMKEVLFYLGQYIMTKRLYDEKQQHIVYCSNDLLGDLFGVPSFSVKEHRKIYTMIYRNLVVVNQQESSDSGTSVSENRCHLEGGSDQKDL

In experiment [1] the target is T1, MDM2 (In-house, 41 kD) (UniProt Q00987 1-138, limits assumed).
T1 construct: Construct used in the FP assays is described only as in-house, 41 kD; also called HDM2
As to the kind of experiment: direct binding fluorescence polarization, MDM2 titrated against 10 nM FAM-labeled peptide. As to the method:
5. […] Then, dilute from 100 µM to 10 µM with water (dilution 1:10) and then dilute with FP buffer from 10 µM to 40 nM (dilution 1:250). This is the working solution which will be a 10 nM concentration in well (dilution 1:4).

Experiment [2] addresses T2, MDMX (In-house, 40 kD) (UniProt O15151 1-134, limits assumed).
T2 construct: Construct used in the FP assays is described only as in-house, 40 kD; also called MDM4
T2 sequence (looked up): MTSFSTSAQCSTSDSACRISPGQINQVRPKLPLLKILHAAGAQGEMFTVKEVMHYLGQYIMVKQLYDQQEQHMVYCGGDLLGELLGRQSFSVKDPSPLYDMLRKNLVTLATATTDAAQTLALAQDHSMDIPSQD
As to the kind of experiment: direct binding fluorescence polarization, MDMX titrated against 10 nM FAM-labeled peptide. As for the experimental part: The assay is performed according to the following general protocol: 1. […] 2. […] 3. […] 4. […] 5. […] Then, dilute from 100 µM to 10 µM with water (dilution 1:10) and then dilute with FP buffer from 10 µM to 40 nM (dilution 1:250). This is the working solution which will be a 10 nM concentration in well (dilution 1:4). […] 6.

B1: 5-FAM-BaLTFEHYWAQLTS-NH2 (peptide)
peptide: ALTFEHYWAQLTS
modifications: N-terminal 5-FAM label; Ba = beta-alanine before Leu; C-terminal amide (NH2)
notes: Linear fluorescent tracer peptide of the FP assays; also called FAM labeled linear peptide; FAM labeled peptide
Turning to B1, the figures for the Kd in experiment [1] and in experiment [2] were approximately 13.4 nM and approximately 51 nM, respectively.
